From publication PMC6193536 (Bioorganic & medicinal chemistry letters, 2018)

Test system: panel of human kinases

CN1CCC(c2nc(-c3cccc(S(C)(=O)=O)c3)c(-c3ccnc(Nc4ccc(N5CCNCC5)cc4)n3)s2)CC1 [16a]
kinase selectivity against a panel of human kinases: much improved kinase selectivity profile
